Experimental findings from patent publication US9605024B2, “PAR4 agonist peptides” (Bristol-Myers Squibb Company, priority 2012, dated 2017) are described below.

The chains behind the UniProt entries cited, without tags or fusion partners. Residues count along the entry.
UniProt Q96RI0, 18-385: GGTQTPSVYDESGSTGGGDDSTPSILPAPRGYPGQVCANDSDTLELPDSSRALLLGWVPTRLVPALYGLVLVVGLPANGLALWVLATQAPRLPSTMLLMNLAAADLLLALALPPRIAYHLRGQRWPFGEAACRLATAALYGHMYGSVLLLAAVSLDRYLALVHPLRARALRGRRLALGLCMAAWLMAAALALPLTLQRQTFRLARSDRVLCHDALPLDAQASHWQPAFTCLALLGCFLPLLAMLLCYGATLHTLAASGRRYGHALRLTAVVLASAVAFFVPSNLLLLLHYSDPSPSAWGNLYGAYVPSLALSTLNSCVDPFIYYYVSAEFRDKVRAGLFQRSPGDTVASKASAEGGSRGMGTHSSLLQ

Assay type in all cases: cell-based
Assay [1] concerns the target T1, PAR4 (Homo sapiens (Human), UniProt Q96RI0). The assay can be described thus: FLIPR assay in PAR4-expressing HEK293 cells, test for agonist activity of PAR4 agonist peptides. The conditions noted are these: calcium mobilization in HEK293 cells expressing human PAR4. The source says:
(§1) HEK293 cells stably expressing PAR4 were generated by a standard method of transfection of human […] cDNA expression vector or by RAGE technology from Athersys Inc. (Cleveland, Ohio) and selected based on PAR4 protein expression of mRNA expression. […] These cells express endogenous PAR1 and can elicit calcium signal upon stimulation with PAR1 agonist peptide.

For assay [2], the target named is T1, PAR4. Kind of assay: Gamma thrombin induced platelet aggregation assay (PRP assay). To be noted: platelet rich plasma. The protocol: The platelet rich plasma was isolated by centrifugation at 170 g for 14 minutes.
The ability of the compounds of the current invention to inhibit platelet aggregation induced by gamma-thrombin was tested in a 96-well microplate aggregation assay format. Briefly, PRP or washed platelet suspension (100 μl) was pre-incubated for 5 minutes at room temperature with varying concentrations of compounds. Aggregation was initiated by ˜10-50 nM gamma thrombin (Haematologic Technologies, Essex Junction, Vt.), which was titrated daily to achieve 80% platelet aggregation. Refludan at 1 U/mL (Berlex, Montville, N.J.) was added to the gamma thrombin sample to prevent PAR1 activation induced by residual alpha-thrombin contamination. The plate was then placed into a 37° C. Molecular Devices (Sunnyvale, Calif.) SPECTRAMAX® Plus Plate Reader. […] The plate also included an untreated control sample which served as ODmax, while buffer containing no platelets was the ODmin. Platelet aggregation was determined by subtracting the ODmax from the ODmin for the 100% aggregation value. In experimental samples, the observed transmission was subtracted from the minimum value and then compared to the 100% aggregation value to determine the percentage aggregation. IC50 values are determined using Excel Fit software.

For assay [3], the target named is T1, PAR4. The assay can be described thus: FLIPR assay in PAR4-expressing HEK293 cells, test for antagonist activity. The conditions noted are these: H-Ala-Phe(4-F)-Pro-Gly-Trp-Leu-Val-Lys-Asn-Gly-NH2-induced calcium mobilization.
Source text: The FLIPR assay is an exemplary in vitro assay for measuring the activity of the PAR4 antagonists of the present invention. In this assay, intracellular calcium mobilization is induced in PAR4 expressing cells by a PAR4 agonist and calcium mobilization is monitored. See, e.g., Example A. The FLIPR assay is also an exemplary in vitro assay for measuring the agonist activity of PAR4 agonist peptides. See Example H.
as §1
Counter screens for agonist activity and PAR1 antagonist activity were also performed. Briefly, HEK293 EBNA PAR4 clone 20664.1J cells were plated 24 hrs. prior to experiment in 384 well, Poly-D-Lysine coated, black, clear bottom plates (Greiner Bio-One, Monroe, N.C.). Cells were plated at 20,000 cells/well in 20 μl growth medium and incubated at 37° C. with 5% CO2 overnight. […]

For the molecule `C[C@H](N)C(=O)N[C@@H](Cc1ccc(O)cc1)C(=O)N1CCC[C@H]1C(=O)NCC(=O)N[C@@H](CCCCN)C(=O)N[C@@H](Cc1ccccc1)C(N)=O` [SEQ ID NO: 1, AYPGKF], the EC50 at PAR4 [1] is 61 µM. Consider `COc1cc(OCc2csc(-c3ccncc3)n2)c2cc(-c3cn4nc(OC)sc4n3)oc2c1` [Example 28], for which the IC50 at PAR4 [2] stood at 2.9 nM. At PAR4 [3], the EC50 came to 0.51 nM.
